E-selectin induc: induces E-selectin expression in human endothelial cells. P16581. HUVEC E-selectin immunofluorescence imaging; normalized: neutral wells 0, TNF-alpha wells 100. 260,000 compounds, 0.37% hits. activation, % at 7.58 µM. AID 686992;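 active means mean E-selectin-positive cell signal at least 10% of the positive control, reached in at least 60% of replicates, without over 20% cell loss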
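System: HUVEC / Compound: single concentration / Signal: immunofluorescence imaging / Read-out: percent E-selectin-positive cells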
Cneo AK release: causes C. neoformans cell lysis. adenylate kinase release luminescence, 4 h; normalised: neutral wells 0, clomiphene wells 100. 360,000 compounds, 0.2% hits. lysis activity, % at 15 µM;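 active means mean lysis activity across replicates of at least 80%, whatever share of replicates individually reach that level; inactive means mean lysis activity below 80%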
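Test system: log-phase Cryptococcus neoformans yeast cells; Quantity: yeast cell density of 5 × 10^6 cells/mL; Buffer or medium: YPD; Doses: single compound concentration per well; Timing: 4 h at 37 °C static, read 1 h later; Measured by: AK luminescence; Read-out basis: lysis from increased AK signal; Control set: Clomiphene as positive control.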
DENV2 CPE rescue: inhibitors of DENV2 cytopathic effect | DENV2-infected cells, cytopathic effect rescue, plate reader | CPE inhibition, % at 9.99 µM | 350,000 compounds, 1.7% hits | AID 651640; in the data active means CPE inhibition above about 20%, passing the limit was not always enough; tested in BHK-21 cells;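 further: 0% = median of neutral control wells and 100% = median of positive control wells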
Yeast UUG start: modulators of start codon recognition fidelity in yeast; activity score, % at 18.7 µM; actives 0.13% (n = 350,000); S. cerevisiae UUG-firefly luciferase reporter, luminescence/redox ratio;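 active = replicate mean at a twofold rise or more, about +100% in these data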;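 note: firefly luciferase made from a UUG start codon reports start codon fidelity; reporter light over untreated wells divided by growth signal over untreated wells; some hits fall short of that in this replicate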
Numbers without * were called inactive; . = no result. Shown are actives, neighbours in structure and some others; about 1.8% of the full set was active somewhere.

Screens by letter – A = E-selectin induc; B = Cneo AK release; C = DENV2 CPE rescue; D = Yeast UUG start
> COc1ccc(S(=O)(=O)Nc2cc3c4c(c2)CCN4C(=O)CC3)cc1
  A: . | B: 1 | C: 60* | D: -5
> COc1cccc(NS(=O)(=O)c2ccc3c(c2)CCCN3C(C)=O)c1
  A: . | B: . | C: -1 | D: .
> COc1ccc(NS(=O)(=O)c2ccc3c(c2)CCCN3C(C)=O)cc1
  A: 121* | B: 4 | C: -5 | D: -9
> CC(C)NC(=O)N(C)C[C@H]1OCCCC[C@@H](C)Oc2ccc(N(C)C)cc2C(=O)N([C@@H](C)CO)C[C@H]1C
  A: 1 | B: 0 | C: 5 | D: .
> O=C1Nc2ccccc2C(=O)N(C2CCCC2)C1C(=O)NC1CC1 (stereo not given)
  A: 0 | B: . | C: 35* | D: .
> C[C@@H]1CCCCO[C@@H](CN(C)S(=O)(=O)c2cccs2)[C@@H](C)CN([C@@H](C)CO)C(=O)c2cc(NS(=O)(=O)c3cn(C)cn3)ccc2O1
  A: . | B: 0 | C: -9 | D: -11
> C[C@@H]1CN([C@H](C)CO)C(=O)c2cc(NS(=O)(=O)c3cn(C)cn3)ccc2O[C@@H](C)CCCCO[C@H]1CN(C)S(=O)(=O)c1cccs1
  A: . | B: . | C: 28* | D: .
> C[C@@H]1CCCCO[C@H](CN(C)S(=O)(=O)c2ccc(Cl)cc2)[C@@H](C)CN([C@@H](C)CO)C(=O)c2cc(NS(=O)(=O)c3cccs3)ccc2O1
  A: 0 | B: -4 | C: 69* | D: -5
> COc1ccc(S(=O)(=O)Nc2ccc3c(c2)C(=O)N([C@@H](C)CO)C[C@@H](C)[C@H](CN(C)S(=O)(=O)c2cccs2)OCCCC[C@H](C)O3)cc1
  A: . | B: -1 | C: 26* | D: -2
> COc1ccc(S(=O)(=O)Nc2ccc3c(c2)C(=O)N([C@@H](C)CO)C[C@@H](C)[C@H](CN(C)S(=O)(=O)c2cccs2)OCCCC[C@@H](C)O3)cc1
  A: . | B: 0 | C: 15 | D: 1
> COc1ccc(S(=O)(=O)N(C)C[C@H]2OCCCC[C@@H](C)Oc3ccc(NS(=O)(=O)c4cccs4)cc3C(=O)N([C@@H](C)CO)C[C@H]2C)cc1
  A: 1 | B: -2 | C: 23* | D: -9
> C[C@@H]1CN([C@@H](C)CO)C(=O)c2cc(NS(=O)(=O)c3cccs3)ccc2O[C@@H](C)CCCCO[C@H]1CN(C)S(=O)(=O)c1ccc(Cl)cc1
  A: 0 | B: -1 | C: -6 | D: -6
> CCC(=O)N1CC(=O)N2[C@H](CO)[C@@H](c3ccc(-c4ccccc4C)cc3)[C@H]2C1
  A: 0 | B: . | C: 0 | D: .
> C[C@@H]1CN([C@H](C)CO)C(=O)c2cc(Br)cnc2O[C@@H]1CN(C)C(=O)c1ccc(F)cc1
  A: 0 | B: -12 | C: -6 | D: 5
> CCN(C[C@H]1N[C@@](Cc2ccccc2)(C(=O)OC)[C@H]2C(=O)N(Cc3ccccc3)C(=O)[C@@H]12)C(=O)NC(C)C
  A: 0 | B: -2 | C: 8 | D: 9

Quoted from the entries so far for reference:
Screens by letter – A = E-selectin induc; B = Cneo AK release; C = DENV2 CPE rescue; D = Yeast UUG start
> C[C@@H]1CN([C@H](C)CO)C(=O)c2cc(Br)cnc2O[C@@H]1CN(C)C(=O)c1ccc(F)cc1
  A: 0 | B: -12 | C: -6 | D: 5
> CCN(C[C@H]1N[C@@](Cc2ccccc2)(C(=O)OC)[C@H]2C(=O)N(Cc3ccccc3)C(=O)[C@@H]12)C(=O)NC(C)C
  A: 0 | B: -2 | C: 8 | D: 9

(further entries)
Screens by letter – A = E-selectin induc; B = Cneo AK release; C = DENV2 CPE rescue; D = Yeast UUG start
> CCNC(=O)N(CC)C[C@H]1N[C@@](Cc2ccccc2)(C(=O)OC)[C@H]2C(=O)N(Cc3ccccc3)C(=O)[C@@H]12
  A: 0 | B: -2 | C: 37* | D: 3
> CC1=NC(C)(C)Cc2c(C)cccc21
  A: 72* | B: 6 | C: 0 | D: -8
> Cc1cccc2c1CC(C)(C)N=C2C1=C(O)CCCC1=O
  A: . | B: 5 | C: . | D: 0
> CN(C)C(=O)C[C@H]1CC[C@H]2[C@@H](COc3ccc(NC(=O)c4cnccn4)cc3C(=O)N2C)O1
  A: 0 | B: -2 | C: 60* | D: -6
> CCNC(=O)C[C@@H]1CC[C@@H]2[C@H](COc3ccc(NC(=O)c4cscn4)cc3C(=O)N2C)O1
  A: 0 | B: 2 | C: 24* | D: -5
> CC(C)C(=O)Nc1ccc2c(c1)C(=O)N(C)[C@H]1CC[C@@H](CC(=O)NCc3ccccc3)O[C@@H]1CO2
  A: 0 | B: 4 | C: 32* | D: 0
> COCC(=O)Nc1ccc2c(c1)C(=O)N(C)[C@@H]1CC[C@@H](CC(=O)NCC(F)(F)F)O[C@@H]1CO2
  A: 0 | B: -2 | C: 81* | D: -6
> CCNC(=O)C[C@H]1CC[C@@H]2[C@H](COc3ccc(NC(=O)c4cscn4)cc3C(=O)N2C)O1
  A: 0 | B: 2 | C: 7 | D: -25
> CN(C)C(=O)C[C@H]1CC[C@@H]2[C@H](COc3ccc(NC(=O)c4cnccn4)cc3C(=O)N2C)O1
  A: 0 | B: 35 | C: -6 | D: 6
> O=C(NCC[C@@H]1CC[C@@H](NC(=O)C2CCCC2)[C@@H](CO)O1)c1cnccn1
  A: 0 | B: -3 | C: -3 | D: 10
> COc1ccccc1CNC(=O)C[C@@H]1CC[C@@H]2[C@H](COc3ccc(NC(C)=O)cc3C(=O)N2C)O1
  A: 2 | B: 101* | C: . | D: 16
> CCCNC(=O)C[C@@H]1CC[C@@H]2[C@@H](COc3ccc(NC(=O)CCC)cc3C(=O)N2C)O1
  A: 0 | B: 105* | C: 4 | D: 5
> CCNC(=O)C[C@@H]1CC[C@@H]2[C@H](COc3ccc(NC(=O)Cc4ccccc4)cc3C(=O)N2C)O1
  A: 0 | B: 15 | C: 27* | D: -3
